This passage reports efflux ratio results from patent US20260035385A1, “BENZO NITROGEN-CONTAINING HETEROAROMATIC RING DERIVATIVE AND USE THEREOF IN MEDICINE” (Xizang Haisco Pharmaceutical Co., Ltd., priority 2021, published 2026).

Molecules are shown by their SMILES.

This data set is described as follows: Caco2 permeability test. In kind it is in vitro ADME. The conditions noted are these: human, pH 7.4, Caco-2 monolayer. As to the method:
The experiment used a monolayer of Caco-2 cells incubated in triplicate in a 96-well Transwell plate. […] Acetonitrile containing internal standard was then added to precipitate the protein. […] The integrity of the cell monolayer after 2 h of incubation was assessed by leakage of Lucifer Yellow.

On to `COc1cc(C)c2[nH]ccc2c1CN1CC[C@@H](C2CC2)C[C@H]1c1ccc(C(=O)O)cc1` [Trifluoroacetate of compound 5 (diastereomer 1), 4-((2S)-4-cyclopropyl-1-((5-methoxy-7-methyl-1H-indol-4-yl)methyl)piperidin-2-yl)benzoic acid], for which the efflux ratio at 2 h, 2 μM came out at 11.

Take `[2H]C([2H])([2H])Oc1cc(C)c2[nH]ccc2c1CN1CC[C@H](C2CC2)C[C@H]1c1ccc(C(=O)O)cc1` [Trifluoroacetate of compound 7 (diastereomer 1), 4-((2S)-4-cyclopropyl-1-((5-(methoxy-d3)-7-methyl-1H-indol-4-yl)methyl)piperidin-2-yl)benzoic acid]: the efflux ratio at 2 h, 2 μM turned out to be 11.
